The target in this assay is T1, stickleback ARβ2 (reticulocyte lysate) (Gasterosteus aculeatus, UniProt Q801Z2).
T1 sequence (Q801Z2 1-735): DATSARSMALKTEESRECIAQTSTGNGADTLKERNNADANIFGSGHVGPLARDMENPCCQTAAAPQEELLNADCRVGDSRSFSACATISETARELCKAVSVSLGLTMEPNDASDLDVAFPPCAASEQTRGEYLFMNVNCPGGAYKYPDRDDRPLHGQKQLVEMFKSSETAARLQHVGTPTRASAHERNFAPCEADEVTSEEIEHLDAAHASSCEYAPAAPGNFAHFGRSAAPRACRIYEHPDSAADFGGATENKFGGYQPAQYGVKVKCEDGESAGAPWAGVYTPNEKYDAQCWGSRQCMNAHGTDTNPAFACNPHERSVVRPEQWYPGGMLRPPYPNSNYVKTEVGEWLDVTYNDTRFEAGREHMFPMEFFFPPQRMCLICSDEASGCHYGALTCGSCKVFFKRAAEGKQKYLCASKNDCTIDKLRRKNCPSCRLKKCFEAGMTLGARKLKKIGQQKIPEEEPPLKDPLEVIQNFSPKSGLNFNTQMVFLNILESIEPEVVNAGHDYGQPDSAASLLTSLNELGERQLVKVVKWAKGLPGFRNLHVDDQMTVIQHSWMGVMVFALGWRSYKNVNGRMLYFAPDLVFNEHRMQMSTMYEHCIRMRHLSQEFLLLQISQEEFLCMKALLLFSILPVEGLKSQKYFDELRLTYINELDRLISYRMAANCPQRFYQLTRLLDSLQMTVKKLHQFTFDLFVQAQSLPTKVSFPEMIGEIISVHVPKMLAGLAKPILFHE
Description: Ligand competition assay with 1 nM [3H]-DHT, ARβ2 containing reticulocyte extract. The assay is classed as binding, three-spined stickleback (Gasterosteus aculeatus).

What is called EC50 is the midpoint of the concentration-response curve. In turn, `C[C@]12CC[C@H]3[C@@H](CCC4=CC(=O)CC[C@@]43C)[C@@H]1CC[C@@H]2O` [T, testosterone] showed an EC50 of 3.03 ± 0.43 nM.

These data come from PMC1192819, “Molecular cloning and characterization of a nuclear androgen receptor activated by 11-ketotestosterone” (Reproductive biology and endocrinology : RB&E, 2005).
